The target of the experiment is human H4 receptor (Homo sapiens, UniProt Q9H3N8). Description: Binding Assay on Recombinant Human Histamine H4 Receptor. Particulars: Table 2; [3H] histamine competition binding, membranes of SK-N-MC cells transfected with human H4 receptor; average of results.

Amino acid sequences for entries named in this document (tags omitted).
UniProt Q9H3N8, whole entry: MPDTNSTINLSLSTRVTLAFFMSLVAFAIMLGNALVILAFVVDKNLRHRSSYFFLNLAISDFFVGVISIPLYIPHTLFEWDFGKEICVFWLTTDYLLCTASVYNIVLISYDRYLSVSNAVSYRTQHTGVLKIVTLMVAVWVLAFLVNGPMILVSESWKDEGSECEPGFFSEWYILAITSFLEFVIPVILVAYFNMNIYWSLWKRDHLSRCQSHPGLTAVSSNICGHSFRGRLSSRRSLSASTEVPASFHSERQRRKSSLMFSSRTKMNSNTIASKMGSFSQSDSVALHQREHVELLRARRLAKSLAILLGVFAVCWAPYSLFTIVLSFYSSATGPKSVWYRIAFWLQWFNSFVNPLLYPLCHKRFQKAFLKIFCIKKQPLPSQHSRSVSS

Usually Ki stands for a dissociation constant, usually derived from enzyme kinetics or from competition with a known ligand.

With `CN1CCN(c2cc(C34CC5CC(CC(C5)C3)C4)nc(N)n2)CC1`, the Ki stood at 6 nM.
With `CN[C@@H]1CCN(c2cc(C34CC5CC(CC(C5)C3)C4)nc(N)n2)C1` the figure was 2 nM.

Values taken from patent publication US8716475B2, “2-aminopyrimidine modulators of the histamine H4 receptor” (Janssen Pharmaceutica NV, priority 2007, dated 2014).
